# Measured values from PubChem BioAssay AID493098 (Sanford-Burnham Center for Chemical Genomics, 2011).
# The chains behind the UniProt entries cited, without tags or fusion partners.
# UniProt P51684, whole entry: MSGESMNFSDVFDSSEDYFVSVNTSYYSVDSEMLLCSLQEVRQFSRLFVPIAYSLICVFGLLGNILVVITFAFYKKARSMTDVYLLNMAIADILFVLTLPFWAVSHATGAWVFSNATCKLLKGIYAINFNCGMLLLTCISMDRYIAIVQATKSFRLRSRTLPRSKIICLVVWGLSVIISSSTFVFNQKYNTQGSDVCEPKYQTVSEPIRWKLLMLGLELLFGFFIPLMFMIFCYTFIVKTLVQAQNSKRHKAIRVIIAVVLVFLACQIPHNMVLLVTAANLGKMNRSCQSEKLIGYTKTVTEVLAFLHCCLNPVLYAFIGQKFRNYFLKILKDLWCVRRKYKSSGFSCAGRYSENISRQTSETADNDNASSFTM
# The entries are a selection whose mix differs from that of the whole data set. Some of these compounds have results that are not shown, active ones among them. The source made the active and inactive calls.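 How the source made its calls: active means compounds whose inhibition of the agonist-driven luminescence signal at 20 µM reaches about 50% (limit read from the data); inactive means the rest.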
# Molecular target: C-C chemokine receptor type 6 (Homo sapiens) (UniProt P51684)
# Test: CCR6 receptor antagonists, primary screen, cell-based, CHO-K1, luminescence, beta-arrestin, uHTS (AID 493098);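 further: cells stimulated with CCL20 at 14 nM final; plate controls were DMSO with CCL20 for no effect and DMSO without agonist for full effect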
# Conditions: CHO-K1 CCR6 PathHunter beta-arrestin, CCL20-stimulated, at 20 µM, hits give high values
row,SMILES,inhibition
1,COc1cc(C(=O)NCC2(N(C)C)CCCCC2)c([N+](=O)[O-])cc1OC,inactive: -0.51%
2,CN(C)C1(CNC(=O)c2ccc(Br)cc2)CCCCC1,inactive: 16%
3,O=C(NCC1(N2CCCCC2)CCCCC1)c1cccc(Cl)c1,inactive: 3.55%
4,COc1cccc(C(=O)NCC2(N3CCCCC3)CCCCC2)c1,inactive: 1.38%
5,COc1ccc(Cl)cc1C(=O)NCC1(N(C)C)CCCCC1,inactive: 8.81%
6,O=C(OC1CN2CCC1CC2)C(CO)(c1ccccc1)c1ccccc1 (stereo not given),inactive: -4.65%
7,CN(C)c1cccc(C(=O)NCC2(N(C)C)CCCCC2)c1,inactive: 3.61%
8,CC(C)Oc1ccc(C(=O)NCC2(N(C)C)CCCCC2)cc1,inactive: 15.1%
9,O=C(OCCN1CCCC1)C(O)(c1ccccc1)c1ccccc1,inactive: 4.39%
10,COc1ccc(Br)c(C(=O)NCC2(N3CCCCC3)CCCCC2)c1,inactive: 16.2%
11,CN1[C@@H]2CC[C@H]1CC(OC(=O)C(O)(c1ccccc1)c1ccccc1)C2 (stereo not given in full),inactive: 6.96%
12,O=C(NCC1(N2CCCCC2)CCCCC1)c1cc([N+](=O)[O-])ccc1Cl,inactive: 7.75%
13,Cc1ccc(C(=O)NCC2(N3CCCCC3)CCCCC2)cc1,inactive: 17.2%
14,CC(C)N1C(=O)CC2(CCN(CCOC(=O)C(O)(c3ccccc3)c3ccccc3)CC2)C1=O,inactive: 15.2%
15,CCN(CC)CC(C)C(C)OC(=O)C(O)(c1ccccc1)c1ccccc1 (stereo not given),inactive: 11.5%
16,COc1cc(SC)ccc1C(=O)NCC1(N(C)C)CCCCC1,inactive: 5.69%
17,Cc1ccccc1C(=O)NCC1(N2CCCCC2)CCCCC1,inactive: 8.25%
18,CN(C)C1CCCC1OC(=O)C(O)(c1ccccc1)c1ccccc1 (stereo not given),inactive: -12.6%
19,CN(C)c1ccc(C(=O)NCC2(N(C)C)CCCCC2)cc1,inactive: 2.31%
20,Cc1cc(C(=O)NCC2(N3CCCCC3)CCCCC2)ccc1[N+](=O)[O-],inactive: 11.7%
21,CCN1CCCC(OC(=O)C2(O)c3ccccc3C=Cc3ccccc32)C1 (stereo not given),inactive: -0.5%
22,O=C(NCC1(N2CCCCC2)CCCCC1)c1cccc(Br)c1,inactive: 13.6%
23,COc1ccc(C(=O)NCC2(N(C)C)CCCCC2)cc1,inactive: 8.4%
24,C=CCN1CCN(CCOC(=O)C(O)(c2ccccc2)c2ccccc2)CC1,inactive: 5.07%
25,O=C(NCC1(N2CCCCC2)CCCCC1)c1cc(F)c(F)cc1Cl,inactive: 9.53%
